Values of other authors, collected in patent US20100286233A1, “PERIPHERAL AND NEURAL INFLAMMATORY CROSSTALK” (University of Rochester, priority 2006, published 2010).

Amino acid sequences for entries named in this document (tags omitted).
UniProt P35372, whole entry: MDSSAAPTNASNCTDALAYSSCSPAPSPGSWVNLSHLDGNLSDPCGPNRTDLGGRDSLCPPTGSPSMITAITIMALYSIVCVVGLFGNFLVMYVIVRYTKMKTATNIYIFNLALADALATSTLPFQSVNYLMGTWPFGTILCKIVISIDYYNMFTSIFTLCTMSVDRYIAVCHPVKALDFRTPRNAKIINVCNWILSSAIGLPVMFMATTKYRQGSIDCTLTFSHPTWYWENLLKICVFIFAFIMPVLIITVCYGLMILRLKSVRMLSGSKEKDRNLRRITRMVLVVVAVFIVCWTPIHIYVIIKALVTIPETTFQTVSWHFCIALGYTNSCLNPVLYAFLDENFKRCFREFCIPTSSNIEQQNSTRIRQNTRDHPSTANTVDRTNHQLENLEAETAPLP

Molecular target: μ-receptors (Homo sapiens, UniProt P35372)
Conditions: cited from earlier work

Substance | affinity for μ-receptors
YPFF-NH2 [endomorphin-2] | highly selective
YPWF-NH2 [Endomorphin-1] | highly selective
